Assay results published in US20240300934A1, “COMPOUNDS FOR MODULATING MYCOBACTERIUM TUBERCULOSIS RESPONSE” (priority 2021, published 2024).

System: cyp125, fadE28, kstD, hsaA, prpD
Assay: qRT-PCR of cholesterol utilization genes of Mtb in cholesterol media
Details: 10 μM; cholesterol media pH 7; 4 hours

Compound: CCSc1ncc(CN2CCN(c3nc4ccccc4o3)CC2)cn1 [Compound C6, 2-(4-((2-(ethylthio)pyrimidin-5-yl)methyl)piperazin-1-yl)benzo[d]oxazole]
- expression of cyp125, fadE28, kstD, hsaA, and prpD: significantly reduced
